In ChEMBL document CHEMBL1149384, “Identification of a novel spiropiperidine opioid receptor-like 1 antagonist class by a focused library approach featuring 3D-pharmacophore similarity” (J Med Chem, 2006):

Key:
Nociceptin receptor [1] = target: T1, Nociceptin receptor (Homo sapiens, UniProt P41146); assay: Antagonist activity on nociceptin-induced [35S]GTP-gamma-S binding to ORL1 expressed in CHO cells
Mu-type opioid receptor = Mu-type opioid receptor (Homo sapiens, UniProt P35372); assay: Displacement of [3H]diprenorphin from cloned human mu opioid receptor expressed in CHO cells
Nociceptin receptor [2] = target: T1, Nociceptin receptor; assay: Displacement of [125I]Tyr-nociceptin from cloned human ORL1 expressed in CHO cells
[3] = target: Kappa-type opioid receptor (Homo sapiens, UniProt P41145); assay: Displacement of [3H]U-69593 from cloned human kappa opioid receptor expressed in CHO cells

## CCn1c(=O)n([C@@H]2CCN(CC3CCCCCCC3)C[C@H]2CO)c2ccccc21
Nociceptin receptor [1]
  IC50: 0.0015 µM
Mu-type opioid receptor
  IC50: 3.4 µM
Nociceptin receptor [2]
  IC50: 0.0024 µM
[3]
  IC50: 1.6 µM
